Data taken from publication PMC7563927 (Cells, 2020).

Experiments:
[1] = pH 7.4
[2] = pH 7.4; remark: listed apart in the source

## human islet amyloid polypeptide [human IAPP, reference compound]
[1]
  Membrane leakage (calcein) of PC:PS LUVs: induced leakage
[2]
  Membrane leakage (calcein) of PC LUVs: more resistant to leakage
